The entries are a selection whose mix differs from that of the whole data set. Results filed as inconclusive are left out. Calls of active or inactive are those of the source. The call rests on the fitted dose curve; in most records, active means well fitted inhibition curve with a large enough effect in the signal ratio, with a control signal flat (not every such curve was filed as active); inconclusive means small, poorly fitted or top-dose-only effect, or effect the other way, or a change in a side signal; inactive means flat fitted curve, though single readings scatter; the % refers to the signal ratio.
Experiment: qHTS Assay to Find Inhibitors of Chronic Active B-Cell Receptor Signaling;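 further: plate controls were basal doxycycline-induced cells for no effect and cells given 10 µM MG132 for full effect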
Conditions: ABC-DLBCL IkBa-CBG/CBR reporter, luminescence ratio (green luciferase fused to IkBa over red control in TMD8 lymphoma cells), 4 h; at 46.1 µM (top of the series)
Excerpt: NIH Molecular Libraries Probe Production Network [MLPCN] NIH Chemical Genomics Center [NCGC] MLPCN Grant: 1 R03 DA031086-01A1 PI Name: Dr. R. Eric Davis NCGC Assay Overview: Diffuse large B-cell lymphoma (DLBCL) is the most common category of non-Hodgkin lymphoma, with ~20,000 new cases per year in the United States. DLBCL should be regarded as a collection of different neoplasms. Microarray gene expression analysis has defined two principal types of DLBCL, named for their similarity to normal B cell stages or activation states: a germinal center B-cell (GCB) type, and an activated B-cell (ABC) type. In ABC-DLBCL, a constitutive high-level activity of the NF-kappaB family of transcription factors has been observed (1) and NF-kappaB target genes are more highly expressed in ABC primary tumors than in GCB tumors. Functional studies have shown a constitutive high-level activity of the IkappaB (inhibitor of kappa-B) kinase (IKK) complex. […] Further analysis of DLBCL primary tumors for NF-kappaB target gene expression imply that although CARD11 is required for constitutive IKK activity in all ABC-DLBCL lines, mutations in CARD11 may be the root cause of IKK activation only in lines or tumors with such mutations. In other words, CARD11 mutations may explain NF-kappaB activation in only 10% of ABC-DLBCL cases. […] This process has been termed 'chronic active BCR signaling' (CABS). The goal of this screen is to find small-molecule inhibitors of the CABS pathway found in ABC-DLBCL lines using a cell-based assay that measures IkappaBalpa stability, which has already been extensively validated in the OCI-Ly3 line (PubChem AID:445; REF: 4). […] The assay uses green (CBG68) and red (CBR) emitting beetle luciferases [Chroma-GloTM developed by Promega Corp.] where the green luciferase is fused to IkappaBalpha and the red luciferase is present in its native state. Both luciferase genes are stably present in the TMD8 human ABC DLBCL cell line, but their expression is under the control of tetracycline-inducible promoters. Following the addition of doxycycline to induce expression of the luciferases, the green luminescence in control cultures rises only slowly because the CBG fusion partner IkappaBalpha is targeted by IKK activity for rapid degradation. In contrast, green luminescence rises rapidly in the presence of proteasome inhibitors or IKK inhibitors. The rise in red luminescence of CBR is not affected by proteasome or IKK inhibitors, and serves as normalization for cell number and nonspecific effects. Compounds were screened as a concentration-titration series that ranged from 46 uM to 3 nM.
NCGC Assay Protocol Summary: Cells were seeded in 1536-well plates at 5000 cells/4uL in IMDM medium containing 0.5% FBS, w/o phenol red, 1% penicillin/streptomycin. Then, 23 nL of compounds or DMSO were delivered to each well using a pin tool. One uL 20ng/ml doxycycline was then dispensed into white solid 1536-well plates and the plates were incubated at 37C/5% C02 in a cell incubator for 4 hrs. Then 4 uL luminescent substrate mix (in-house prepared: 150 mM Tris-Cl, pH 7.6, 3 mM MgCl2, 1% Triton X-100, 5 mM DTT, 0.2 mM CoA, 0.15 mM ATP, 5 mM D-luciferin, final concentrations) was added to each well. The plate was incubated at r.t. for 10-15 min. The plates were measured on a ViewLux plate reader for green luminescence (540/20 nm filter) and red luminescence (618/8 nm filter). The green and red luminescent signals were corrected for red and green luminescence filter overlap using previously determined filter calibration constants (determined using the procedure outlined in the Promega Technical Manual; REF 4). The %Activity was determined from the ratio of corrected green/red luminescent values. MG132 were used as control. […] Red luminescent %Activity was normalized to the difference between red luminesence in basal cells (0%Activity) and zero luminescence (-100% Activity). […]

| Compound | activity change, negative = inhibition |
| --- | --- |
| O=C(NC(Sc1ccncn1)C(Cl)(Cl)Cl)c1ccccc1 (stereo unspecified) | inactive: -1% |
| CC(C)CC(=O)NC(Sc1ccc(Cl)cc1)C(Cl)(Cl)Cl (stereo unspecified) | inactive: -17.4% |
| Clc1ccc(Cl)c(NC2=NCC(CBr)S2)c1 (stereo unspecified) | inactive: -7.66% |
| COc1ccccc1OP(=O)(Nc1ccc(C)cn1)Oc1ccccc1OC | inactive: -6.37% |
| Cc1ccc(OP(=O)(Nc2nccs2)Oc2ccc(C)cc2)cc1 | inactive: -2.26% |
| CN(C(=O)Cc1ccc(Cl)c(Cl)c1)[C@H]1CCCC[C@H]1N1CCCC1 | inactive: -20.1% |
| Cc1ccc(N/C(=N/P(=O)(N2CCOCC2)N2CCOCC2)N2CCOCC2)cc1 | inactive: 6.39% |
| NC(=O)c1cc([N+](=O)[O-])cc([N+](=O)[O-])c1N | inactive: -2.43% |
| Nc1cccc2ccc([As](=O)(O)O)cc12 | inactive: -3.61% |
| CCN(N=Nc1nonc1N)c1nonc1N | inactive: 7.05% |
| CCOP(=O)(Nc1ccccc1)OCC | inactive: 0.936% |
| Cc1cc(SC(NC(=O)c2ccc(F)cc2)C(Cl)(Cl)Cl)ncn1 (stereo unspecified) | inactive: 5.94% |
| CC(=O)Nc1ccc([As](=O)(O)O)cc1 | inactive: -0.925% |
| O=C(O)CNc1ccc([As](=O)(O)O)cc1 | inactive: 2.35% |
| O=[N+]([O-])c1cccc(NC2=NCC(CBr)S2)c1 (stereo unspecified) | inactive: -0.999% |
| O=[N+]([O-])c1ncn(CCn2ncnc2[N+](=O)[O-])n1 | inactive: -2.45% |
| CC(C)(C)C(=O)NC(Sc1ccncn1)C(Cl)(Cl)Cl (stereo unspecified) | inactive: -4.24% |
| CC1CCN(C(=O)Oc2c(Cl)cc(Cl)c3cccnc23)CC1 | inactive: 10.1% |
| CC(C)=N/N=C(\N)N[N+](=O)[O-] | inactive: 4.44% |

| Compound | activity change, negative = inhibition |
| --- | --- |
| CN(C)C(=O)OCCc1n(C)cc[n+]1C | inactive: -0.164% |
| CCN(/C(=N/P(=O)(N1CCOCC1)N1CCOCC1)N1CCOCC1)c1ccc(OC)cc1 | inactive: 0.599% |
| Nc1ccc([As](=O)(O)c2ccc(N)cc2)cc1 | inactive: -3.48% |
| Cc1ccc(NP(=O)(Oc2ccccc2)Oc2ccccc2)nc1 | inactive: -10.5% |
| CC(=O)N1C2C3N(C(C)=O)C1C1N(C(C)=O)C(C(N1C(C)=O)N3C(C)=O)N2C(C)=O | inactive: 2.17% |
| O=[N+]([O-])c1cccc2n[nH]nc12 | inactive: 9.8% |
| c1nnnn1CCn1cnnn1 | inactive: -9.75% |
| O=P(Nc1nccs1)(c1ccccc1)c1ccccc1 | inactive: -12.6% |
| CC(C)C(=O)NC(Sc1ccccc1)C(Cl)(Cl)Cl (stereo unspecified) | inactive: -1.73% |
| O=C(OC1CN2CCC1CC2)c1cccc(Cl)c1 (stereo unspecified) | inactive: 2.16% |
| Nc1ccc([As](=O)(O)c2ccc([N+](=O)[O-])cc2)cc1 | inactive: -9.89% |
| O=[As](O)(c1ccccc1)c1ccc(O)cc1 | inactive: 1.67% |
| O=[N+]([O-])c1ncn(CCn2cnc([N+](=O)[O-])n2)n1 | inactive: -0.196% |
| O=P(Nc1nc2ccccc2s1)(c1ccccc1)c1ccccc1 | inactive: 1.95% |
| C[C@H]1OP(=O)(Oc2ccccc2)[C@H](O)[C@H](O)[C@H]1N=[N+]=[N-] (stereo partly specified) | inactive: 2.09% |
| CN(C)C1(CNC(=O)c2ccc(Cl)c(S(N)(=O)=O)c2)CCCCC1 | inactive: -12.6% |
| O=P(Nc1ccccn1)(c1ccc(Br)cc1)c1ccc(Br)cc1 | inactive: -1.22% |
| Cc1ccccc1OP(=O)(Nc1ccccn1)Oc1ccccc1C | inactive: -10.9% |
| CC(NC(=O)COC(=O)C(O)(c1ccccc1)c1ccccc1)c1ccccc1 (stereo unspecified) | inactive: -6.74% |

| Compound | activity change, negative = inhibition |
| --- | --- |
| CN(C)C(=O)Oc1noc2ccccc12 | inactive: -1.79% |
| O=c1c2cc([N+](=O)[O-])ccc2[nH]c2c([N+](=O)[O-])cc([N+](=O)[O-])cc12 | inactive: 11.8% |
| O=C(OC1CN2CCC1CC2)c1ccccc1 (stereo unspecified) | inactive: -1.93% |
| CCC(=O)N1C2C3N(C(=O)CC)C1C1N(C(=O)CC)C(C(N1C(=O)CC)N3C(=O)CC)N2C(=O)CC | inactive: -3.43% |
| COC(=O)c1cc2c(s1)N=C(c1ccccc1)N(C)P2(=O)N1CCOCC1 (stereo unspecified) | inactive: -0.86% |
| CC(=O)NC(SC(=S)N(CC(C)C)CC(C)C)C(Cl)(Cl)Cl (stereo unspecified) | inactive: 1.57% |
| Cc1ccc(OP(=O)(Nc2ccccn2)Oc2ccc(C)cc2)cc1 | inactive: -8.17% |
| c1ccc(-c2nn[nH]n2)c(-c2nn[nH]n2)c1 | inactive: -27.7% |
| Cc1ccc(NP(=O)(Oc2cccc(C)c2)Oc2cccc(C)c2)nc1 | inactive: -3.12% |
| CCOC(=O)NC(Sc1ccccc1)C(Cl)(Cl)Cl (stereo unspecified) | inactive: -25.7% |
| CCNC(=S)/N=C(\N)N[N+](=O)[O-] | inactive: 2.32% |
| CC(=O)Nc1ccc([As](=O)(O)O)c(O)c1 | inactive: -0.689% |
| CC(=O)Nc1ccc(Oc2c([N+](=O)[O-])cc([N+](=O)[O-])cc2[N+](=O)[O-])cc1 | inactive: 0.694% |
| Cc1ccccc1CN(C)C(=O)COC(=O)C(O)(c1ccccc1)c1ccccc1 | inactive: -0.895% |
| C[C@@H]1C=CCP(=O)(Oc2ccccc2)O1 (stereo partly specified) | inactive: 0.597% |
| CC(=O)c1ccc(N2CC2c2ccncc2)cc1 (stereo unspecified) | inactive: 0.043% |
| CC(C)(C)C(=O)NC(Sc1ccccc1)C(Cl)(Cl)Cl (stereo unspecified) | inactive: 1.49% |
| COc1cc(C2NCCC3(OCCO3)C2(C)C)cc(OC)c1OC (stereo unspecified) | inactive: -4.29% |
